From PubChem BioAssay (NCI) come the findings set out here.

Each structure is given as a SMILES string.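 Growth conditions: 96-well plates. Treatment: test compound, 48 hours, 5 concentrations. Analysis: linear interpolation between bracketing concentrations; unreached endpoints set to highest concentration. The concentration for 50% growth inhibition is given as GI50. Definition used: TGI = concentration required for complete inhibition of growth.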

The assay concerns MDA-MB-468 breast. Kind of assay: DTP human tumour cell line panel, 48 h.

On to `CN(CCCl)CCCl`, for which the concentration for 50% growth inhibition (GI50) is 363 nM and the TGI came out at 1960 nM.

As a reminder, the GI50 is the concentration at which growth is held to half of that of the control. In general, TGI refers to the concentration at which net growth stops. A high value points to lower sensitivity of the cells.
